In US20260022171A1 (23ANDME, published 2026):

What was measured:
hu-CD200R1-iso4-Alt ECD = molecular target: T1, hu-CD200R1-iso4-Alt ECD (human); assay: SPR Biacore 8K 37C; biotin-CD200R1 captured, antibody analyte
T1 construct: also called isoform 4 alt
T1 chain: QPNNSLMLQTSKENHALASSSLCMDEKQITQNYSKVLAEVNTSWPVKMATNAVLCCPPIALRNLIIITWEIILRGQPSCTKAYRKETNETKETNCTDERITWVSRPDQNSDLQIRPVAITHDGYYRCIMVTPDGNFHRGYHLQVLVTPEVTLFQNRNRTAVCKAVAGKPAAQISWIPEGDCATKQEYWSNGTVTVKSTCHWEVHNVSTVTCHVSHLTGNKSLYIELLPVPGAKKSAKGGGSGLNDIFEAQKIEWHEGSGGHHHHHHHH

hu-CD200R1-iso4-Ref ECD = molecular target: T2, hu-CD200R1-iso4-Ref ECD (human); assay: as above
T2 chain: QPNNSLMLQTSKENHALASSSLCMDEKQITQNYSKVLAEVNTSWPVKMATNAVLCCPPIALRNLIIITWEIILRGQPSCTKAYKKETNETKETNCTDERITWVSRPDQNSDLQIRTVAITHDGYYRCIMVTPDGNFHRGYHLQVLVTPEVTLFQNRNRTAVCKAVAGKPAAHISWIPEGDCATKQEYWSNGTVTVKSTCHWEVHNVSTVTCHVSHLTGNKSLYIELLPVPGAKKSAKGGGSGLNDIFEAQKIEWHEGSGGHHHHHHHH

hu-CD200R1-iso1-Ref ECD [1] = molecular target: T3, hu-CD200R1-iso1-Ref ECD (human); assay: as above
T3 chain: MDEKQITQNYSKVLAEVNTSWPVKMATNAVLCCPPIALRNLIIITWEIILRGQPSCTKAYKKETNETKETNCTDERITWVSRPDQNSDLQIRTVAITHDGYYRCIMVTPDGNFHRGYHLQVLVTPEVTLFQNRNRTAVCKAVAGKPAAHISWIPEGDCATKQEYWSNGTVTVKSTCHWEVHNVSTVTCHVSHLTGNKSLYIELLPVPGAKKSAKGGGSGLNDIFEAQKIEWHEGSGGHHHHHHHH

hu-CD200R1-iso1-Alt ECD [2] = molecular target: T4, hu-CD200R1-iso1-Alt ECD (human); assay: as above
T4 chain: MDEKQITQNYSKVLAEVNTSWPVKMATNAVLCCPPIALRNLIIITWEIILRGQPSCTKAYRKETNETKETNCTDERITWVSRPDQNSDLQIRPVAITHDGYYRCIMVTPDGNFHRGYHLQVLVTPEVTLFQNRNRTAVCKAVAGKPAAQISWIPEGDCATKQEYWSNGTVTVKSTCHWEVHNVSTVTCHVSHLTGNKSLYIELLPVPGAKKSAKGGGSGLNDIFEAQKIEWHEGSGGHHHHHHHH

hu-CD200R1-iso1-Ref ECD [3] = molecular target: T3, hu-CD200R1-iso1-Ref ECD; assay: SPR Biacore 8K, comparison of KD
hu-CD200R1-iso1-Alt ECD [4] = molecular target: T4, hu-CD200R1-iso1-Alt ECD; assay: SPR Biacore 8K, comparison of KD

Kd (hu-CD200R1-iso4-Ref ECD): 16.2 nM
koff (hu-CD200R1-iso4-Ref ECD): 0.00389 s⁻¹
kon (hu-CD200R1-iso4-Ref ECD): 240000 M⁻¹ s⁻¹
Kd (hu-CD200R1-iso1-Ref ECD [1]): 2.23 nM
koff (hu-CD200R1-iso1-Ref ECD [1]): 0.00765 s⁻¹
kon (hu-CD200R1-iso1-Ref ECD [1]): 3.43e+06 M⁻¹ s⁻¹
fold greater affinity than for isoform 4 (hu-CD200R1-iso1-Ref ECD [3]): 10 fold
B1: OX108 (commercial anti-CD200R1 antibody) (antibody, V domains shown)
VH: EVKLQQSGPELVKPGASVKMSCKASGYTFTSYVMHWVKQKPGQGLEWIGYINPYNDDTNYNEKFKGKATLTSDKSSSTAYMELSSLTSEDSAVYYCAREDYYGSRWGYWGQGTTLTVSS
VL: DIVLTQSPASLAVSLGQRATISCRASKSVSTSGYSYMHWYQQKPGQPPKLLIYLASNLESGVPARFSGSGSGTDFTLNIHPVEEEDAATYYCQHSRELLTFGAGTKLELK
Kd (hu-CD200R1-iso4-Alt ECD): 15 nM
koff (hu-CD200R1-iso4-Alt ECD): 0.00386 s⁻¹
kon (hu-CD200R1-iso4-Alt ECD): 257000 M⁻¹ s⁻¹
Kd (hu-CD200R1-iso1-Alt ECD [2]): 2.13 nM
koff (hu-CD200R1-iso1-Alt ECD [2]): 0.00824 s⁻¹
kon (hu-CD200R1-iso1-Alt ECD [2]): 3.86e+06 M⁻¹ s⁻¹
fold greater affinity than for isoform 4 (hu-CD200R1-iso1-Alt ECD [4]): 10 fold
